Data: paper PMC9798004 (Frontiers in Psychiatry, 2022)

Sequences of proteins named here, by UniProt entry; tags and fusion partners are left off. Residues count along the entry.
UniProt P22888, 27-699: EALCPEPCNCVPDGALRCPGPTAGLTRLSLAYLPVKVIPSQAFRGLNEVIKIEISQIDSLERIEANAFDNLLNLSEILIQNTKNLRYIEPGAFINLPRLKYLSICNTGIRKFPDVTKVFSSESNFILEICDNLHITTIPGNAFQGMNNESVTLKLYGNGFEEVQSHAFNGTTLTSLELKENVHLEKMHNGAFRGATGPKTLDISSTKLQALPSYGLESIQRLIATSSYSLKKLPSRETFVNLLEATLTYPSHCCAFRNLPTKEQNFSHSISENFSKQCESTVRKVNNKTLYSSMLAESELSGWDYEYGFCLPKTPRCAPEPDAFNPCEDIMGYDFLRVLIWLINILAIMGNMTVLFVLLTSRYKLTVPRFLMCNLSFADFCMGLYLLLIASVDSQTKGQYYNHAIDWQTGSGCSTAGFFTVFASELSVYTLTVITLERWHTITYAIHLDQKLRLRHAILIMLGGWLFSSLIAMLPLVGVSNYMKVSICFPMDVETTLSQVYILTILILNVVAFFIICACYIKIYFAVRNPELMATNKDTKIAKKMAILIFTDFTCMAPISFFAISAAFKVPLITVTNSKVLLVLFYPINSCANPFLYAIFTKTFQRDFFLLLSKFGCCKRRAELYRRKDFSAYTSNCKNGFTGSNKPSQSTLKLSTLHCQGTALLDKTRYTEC

What was measured:
[1] = target: T1, TSHR(L) (Homo sapiens, UniProt P16473); assay: PathHunter β-arrestin assay; assay type: cell-based; settings: screen, control agonist; U2OS, RT, 4HR
T1 construct: purchased Eurofins DiscoverX (PathHunter gpcrMAX)

[2] = target: T2, LHCGR (Homo sapiens, UniProt P22888); assay: PathHunter β-arrestin assay; assay type: cell-based; settings: screen, control agonist; CHO, 37C, 2HR
T2 construct: purchased Eurofins DiscoverX (PathHunter gpcrMAX)

TSH: control agonist for TSHR(L)
EC80 [1]: 29.3 nM

hCG: control agonist for LHCGR
EC80 [2]: 4.38 nM
